This is an account of results in article PMC7395068, “The evolution of strategies to minimise the risk of human drug-induced liver injury (DILI) in drug discovery and development” (Archives of Toxicology, 2020).

Where two headings read alike, the source gives them in different places.

Series [1] can be described thus: Plasma free fraction (fu) and unbound Cmax (Cmax,u). Format: in vitro ADME, human. The following applies: unbound plasma Cmax.
The test system of series [2] is primary human hepatocytes, NIH3T3 fibroblasts, BSEP, CYP3A4. The following applies: In vitro Assay; ref Schadt 2015; cited from earlier work.
The next series has as its system hLiMTs. The following applies: ATP, IC50 < 100 × Cmax.tot, ref Proctor et al. 2017; cited from earlier work.
The subject of the next series is PHH. The conditions noted are these: 2D PHH, ATP, IC50 < 100 × Cmax.tot; ref Proctor et al. 2017; cited from earlier work.
The conditions of series [3]: cited from earlier work.

Take `CS(=O)(=O)CCNCc1ccc(-c2ccc3ncnc(Nc4ccc(OCc5cccc(F)c5)c(Cl)c4)c3c2)o1` [lapatinib]: the “Human plasma Cmax,u” value in series [1] is given as 0.116 µM.

Regarding `NC(=O)N1c2ccccc2CC(=O)c2ccccc21` [oxcarbazeptin], in series [2], the “Cellular toxicity (3T3 cells)” value is recorded as “-VE”, the “Combined Assay” value is on record as “+VE”, the “GSH adduct HML” value was “+VE” and the Hepatocyte cellular toxicity result is reported as “-VE”. Besides, in series [2], the “MitoTox 3T3” value was “-VE”, the “TDI CYP3A4” value is “-VE” and the hBSEP inhibition entry is given as “-VE”.

In the case of `C1CCC(C(CC2CCCCN2)C2CCCCC2)CC1` (stereo not shown) [perhexiline], the “hLiMTs/100xCmax, Proctor (2017)” value in the series with hLiMTs was “+VE (IC50 < 100 × Cmax.tot)”. The “PHH/100xCmax, Proctor (2017)” value in the series on PHH is recorded as “+VE (IC50 < 100 × Cmax.tot)”. For the same compound, the “Human plasma Cmax,u” value in series [1] turned out to be 0.216 µM.

Take benzylpenicilloyl polylysine: in series [3] (binary DILI call, ref Chen 2016), the “DILI +VE (5-8), DILI -VE (-4)” value is on record as “-VE”.

For cetuximab, the “DILI +VE (5-8), DILI -VE (-4)” value in series [3] (in vivo) is “-VE”.

choriogonadotropin alfa: in series [3] (in vivo), the “DILI +VE (5-8), DILI -VE (-4)” value is “-VE” and the DILI severity category entry is reported as “Ambiguous DILI-concern”.

Take eculizumab: the “DILI +VE (5-8), DILI -VE (-4)” value in series [3] (in vivo) was “-VE”.

In the case of follitropin alfa/beta, in series [3] (in vivo), the “DILI +VE (5-8), DILI -VE (-4)” value was “-VE” and the DILI severity category result was “Ambiguous DILI-concern”.

Consider interferon alfa-2b, for which the “DILI +VE (5-8), DILI -VE (-4)” value in series [3] (in vivo) is on record as “+VE”.

Take interferon beta-1a: in series [3] (in vivo), the “DILI +VE (5-8), DILI -VE (-4)” value is reported as “+VE”.

Regarding peginterferon alfa-2b, in series [3] (in vivo), the “DILI +VE (5-8), DILI -VE (-4)” value is “+VE”.

As to thyrotropin alfa, the “DILI +VE (5-8), DILI -VE (-4)” value in series [3] (in vivo) is “-VE”.

As to trastuzumab, in series [3] (in vivo), the “DILI +VE (5-8), DILI -VE (-4)” value is recorded as “+VE” and the DILI severity category result is recorded as “vLess-DILI-Concern”.

Consider urofollitropin, for which, in series [3] (in vivo), the “DILI +VE (5-8), DILI -VE (-4)” value is “-VE”.
